# Source: PubChem BioAssay (National Center for Advancing Translational Sciences (NCATS))
# GALK inh = blocks human galactokinase activity; 270,000 compounds, 0.007% hits; Purified GALK, Kinase-Glo residual ATP luminescence; Potency, µM (highest dose often 57.5 µM), for the others: top-dose activity change, negative = inhibition, hits mostly inhibitors; P51570; AID 1868; also: potency is read from the fitted curve at half-maximal effect; % is scaled to controls: 0 for no effect and ±100 for the full control effect
#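 GALK at 5 nM final was combined with compound, 35 uM ATP and 100 uM galactose in HEPES pH8.0 with MgCl2 and DTT. The reaction ran one hour at room temperature before luminescent ATP detection.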
# RXFP1 antag = antagonists of human relaxin receptor RXFP1; Q9HBX9; HEK293-RXFP1, relaxin-stimulated cAMP HTRF, 30 min; stronger effect = lower value; activity change, negative = inhibition, % at 57.5 µM; 350,000 compounds, 0.59% hits; AID 1259400;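 active = activity change of -60% or lower, but not beyond a set lower limit; inconclusive = change between -60% and -40%, or beyond the set limit; inactive = change above -40%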; also: % is scaled to controls: 0 for no effect and ±100 for the full control effect
# PKM2 activator = PKM2 (human) enzyme activation; P14618; purified PKM2, Kinase-Glo ATP luminescence, activation; response scale: 0% is enzyme alone, no compound; Potency, µM (doses to about 57.5 µM), for the others: top-dose activation, actives largely listed as activators; 260,000 compounds, 0.34% hits; AID 1631; also: potency is read from the fitted curve at half-maximal effect; % is scaled to controls: 0 for no effect and ±100 for the full control effect; nearly all actives have a fitted effect of over 55% in size
#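 Purified hPK-M2 (>95% pure) converted ADP (0.1 mM final) to ATP with 0.5 mM PEP in 50 mM imidazole pH7.2, KCl, MgCl2, Tween 20, BSA; 1 h at room temperature. ATP detected by Kinase-Glo luminescence.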
# Luc counter = blocks Kinase-Glo luciferase, a counter-screen artifact; Potency, µM (highest dose often 38.3 µM), for inactives: at the top dose activity change, negative = inhibition, usual class: inhibitors; AID 1379; Kinase-Glo luciferase, ATP luminescence, 8 min; 200,000 compounds, 0.28% hits; also: potency is read from the fitted curve at half-maximal effect; % is scaled to controls: 0 for no effect and ±100 for the full control effect; nearly all actives have a fitted effect of over 60% in size
#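 Compound is pinned into ATP-containing buffer (10 uM ATP, imidazole pH 7.2, 7 mM MgCl2). Kinase-Glo luciferase reagent is then added. Light output is recorded following an 8-min room-temperature incubation.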
# RXFP1 ag = RXFP1 (human) receptor agonism. AID 2676. 370,000 compounds, 0.3% hits. HEK293T-RXFP1 cAMP TR-FRET, 30 min; response scale: percent of porcine relaxin response, buffer zero. Potency, µM (series often up to 57.5 µM), without a hit: at the top dose activation, hits mostly activators. Q9HBX9; also: potency is read from the fitted curve at half-maximal effect; % is scaled to controls: 0 for no effect and ±100 for the full control effect; nearly all actives have a fitted effect of over 60% in size
#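 HEK293 cells stably expressing RXFP1, treated 30 min at 37C with compounds plus PDE4 inhibitor Ro 20174; cAMP measured by HTRF TR-FRET. Normalized to buffer and 29 nM porcine relaxin; EC50 by Hill fit.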
# miR-21 reporter = miR-21 reporter, rising signal; Potency, µM (titrated, usually from 38.3 µM), without a hit: at the highest dose reporter change, positive = more light; AID 2288; 340,000 tested, under 10 active; HeLa miR-21 FLuc reporter, luciferase, 48 h; active = well fitted rising curve with a large enough effect; inconclusive = small, poorly fitted or top-dose-only effect; inactive = no such curve, though single readings can be large or run the other way;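 note: % of control where 0% means no effect; miR-21 action dims this reporter so a rising signal means less miR-21 action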
#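 HeLa cells endogenously expressing miR-21, stably carrying CMV-driven firefly luciferase with a downstream miR-21 binding site, 2000 cells/well. Titrations up to approximately 40 uM, 48 hours; luciferase luminescence read.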
# HeLa tox = counter-screen for pyruvate kinase M2 activators: HeLa cytotoxicity; shares compounds with PKM2 activator; HeLa viability, CellTiter-Glo ATP luminescence, 24 h; activity change, negative = cytotoxicity, % at 57.5 µM; 230 tested, under 10 active; AID 1898; also: % of control where 0% means no effect
# An asterisk follows results filed as active; ? = inconclusive; / = not tested or not shown; [ ] = remark or other dose. Sampled rows, rich in hits. Any-hit rate of the full collection: about 0.92%. Unless noted, calls follow the shape of the dose curve; as a rule, active = well fitted curve in the direction sought with a large enough effect; inconclusive = small, poorly fitted or top-dose-only effect, or another doubt; inactive = no such curve, though single readings can be large; an effect the other way counts as inactive or inconclusive.
SMILES,GALK inh,RXFP1 antag,PKM2 activator,Luc counter,RXFP1 ag,miR-21 reporter,others
CN1CC[C@]23c4c5ccc(O)c4OC2C(O)CCC3[C@H]1C5 (stereo not given in full),/,16,/,/,/,/,
COC[C@@H](NC(C)=O)C(=O)NCc1ccccc1,/,14,/,/,/,/,
CC(=O)OCC(N)C(=O)c1ccccc1 (stereo not given),/,/,/,1%[39.9 µM],/,/,
Cc1cc(/C=C2\C(=O)NC(=O)N(c3ccc(Cl)cc3)C2=O)c(C)n1-c1sc2c(c1C#N)CCCC2,-6%,-34,26%,1%,0%,0%,
CCOC(=O)c1c(-n2c(C)cc(/C=C3\C(=O)NC(=O)N(C)C3=O)c2C)sc2c1CCCC2,1%,13,16µM*,-1%,1%,-3%,
O=c1oc2ccccc2c(O)c1C(CC(O)c1ccc(-c2ccc(Br)cc2)cc1)c1ccccc1 (stereo not given),/,-64*,/,/,/,/,
O=c1c2ccccc2[se]n1-c1ccccc1,1%,/,-85%,10µM*,0%,?,
COc1cc(CC(C)N)cc2c1OCO2 (stereo not given),/,17,/,/,/,/,
Cc1ccc(-n2c(O)c(/C=N/Nc3ccccc3)c(=O)[nH]c2=O)cc1C,/,-70*,8%,/,0%,8%,
CCOC(=O)C1(CCc2ccccc2)CCN(Cc2cccc3c2OCO3)CC1,6%,?,32µM*,/,-1%,5%,
CCOC(=O)C1(CCc2ccccc2)CCN(Cc2csc(C(C)=O)c2)CC1,1%,-20,0%,/,0%,0%,
CCOC(=O)C1(CCc2ccccc2)CCN(Cc2cccc3cnccc23)CC1,-2%,-83*,-6%,/,-3%,-3%,
COc1cc(CCN)c(OC)cc1Br,/,-6,/,/,/,/,
ClCCCN1CCN(c2cccc(Cl)c2)CC1,/,14,/,/,/,/,
O=c1[nH]c(=S)n(C2CC2)c(O)c1C=NCc1ccc(F)cc1,/,3,15%,/,25µM*,-1%,
O=c1[nH]c(=S)n(C2CC2)c(O)c1C=NCc1cccnc1,4%,3,14%,/,29%,0%,
C=CCC1(C(C)CC)C(=O)NC(=O)NC1=O (stereo not given),/,-23,/,/,/,/,
O=C(O)c1sc2cc(Cl)ccc2c1Cl,-5%,/,0%,/,14µM*,0%,
O=C(c1sc2ccccc2c1Cl)N1CCC2(CC1)OCCO2,0%,21,-5%,0%,0%,-32%,
CN(C)CC(C(=O)Cc1ccccc1)c1ccccc1 (stereo not given),/,-118*,/,/,/,/,
COCCCNC(=O)c1c(N)n(Cc2ccco2)c2nc3ccccc3nc12,-2%,-4,25µM*,/,3%,7%,
O=c1[nH]c(=O)n(Cc2ccco2)c(O)c1C=NCc1cccs1,2%,4,28µM*,-4%,-2%,-1%,
O=c1[nH]c(=S)n(Cc2ccco2)c(O)c1C=NCc1cccs1,3%,-6,-1%,13%,0%,-2%,
CC(=O)O/C(=C1/C[C@H]2[C@@H]3CC=C4C[C@@H](OC(C)=O)CC[C@]4(C)[C@@H]3CC[C@]2(C)C1=O)C(F)(F)F,/,/,/,-5%[7.66 µM],/,/,
CNC(=O)Oc1ccc(-c2cn3cc(C)ccc3n2)cc1,6%,-2,-25%,?,1%,?,
# (listing goes on)
SMILES,GALK inh,RXFP1 antag,PKM2 activator,Luc counter,RXFP1 ag,miR-21 reporter,others
CNC(=O)Oc1cccc(-c2cn3cc(Cl)ccc3n2)c1,/,-6,-55%,10µM*,5%,32%,
CCNC(C)Cc1ccc2c(c1)OCO2 (stereo not given),/,8,/,/,/,/,
O=C1NC(=O)C(=Cc2ccc(Sc3ccccc3)o2)C(=O)N1,3%,?,20µM*,/,11%,11%,
CC(=O)c1ccc2c(c1)C1C(Cl)C(Sc3ccccc3[N+](=O)[O-])CC1C(c1ccccc1[N+](=O)[O-])N2 (stereo not given),1%,-27,-6%,0%,-2%,-4%,
CC(=O)c1ccc2c(c1)C1C(Cl)C(Sc3ccccc3[N+](=O)[O-])CC1C(c1ccccc1)N2 (stereo not given),0%,-81*,-8%,-8%,-8%,-1%,
Nc1c(C(=O)NCC2CCCO2)c2nc3ccccc3nc2n1Cc1ccco1 (stereo not given),4%,-17,18µM*,/,-2%,4%,HeLa tox=-17
CCN(CC)C(=O)N[C@@H]1C=C2c3cccc4[nH]cc(c34)C[C@@H]2N(C)C1,/,-16,/,/,/,/,
